Laboratory results taken from patent US20060165708A1, “Cancer vaccine containing cancer antigen based on tumor suppressor gene wt1 product and cationic liposomes” (Chugai Seiyaku Kabushiki Kaisha, priority 2001, published 2006).

How the values were obtained:
C1498 cells = assay: Anti-tumor effect after immunization, tumor not expressing WT1; assay type: in vivo, C57BL/6 mice; details: FIG. 2 B
Description: As the tumor model, WT1 gene-introduced C1498 cells (C1498muWT1 cells) were used; as the immunization animal, C57BL/6 mice were used; and as the model cancer antigen, the peptide D^b 126 was used. Thus, C57BL/6 mice were immunized three times weekly by subcutaneous administration, to the back thereof, of the same mixture as in Example 1 of the cancer antigen peptide D^b 126 and lipofectin (LPF) (10 nmol/mouse), or by the intraperitoneal administration of lipopolysaccharide-blast (LPS-blast) (1 ml), and one week after the final immunization C1498muWT1 cells or C1498 cells were intraperitoneally transplanted at an amount of 2×10^6 cells/100 ml. The effect of tumor vaccine was determined daily, and was evaluated by calculating tumor size using the following equation: [Tumor size]=[(long diameter)×(short diameter)^2]^1/3
In each group, the experiment was terminated when tumor size reached 20 mm.
Furthermore, in order to confirm that this anti-tumor effect is WT1-specific, a similar study was carried out using C1498 cells that are not expressing WT1. […] Therefore, it was confirmed that the above anti-tumor effect is WT1-specific.

[1] = biological target: K^b or D^b of mouse MHC class I; assay: Binding affinity of WT1 peptides for mouse MHC class I; details: in words only, no numbers given
Description: In accordance with the present invention, as a basis for designing cancer antigen peptides, K^b and D^b of mouse MHC class I as well as A0201 of human HLA were selected, and peptides estimated to have a high affinity with them were selected.
Based on the description in Immunogenetics 41:178-228 (1995), Phe and Try at position 5 as well as Leu and Met etc. at position 8 are expected to be the anchor amino acids for binding to K^b, and Asn at position 5 as well as Met and Ile etc. at position 9 are expected to be the anchor amino acids for binding to D^b.

“RMFPNAPYL [D^b 126, Arg Met Phe Pro Asn Ala Pro Tyr Leu]” was tested, and the “anti-tumor effect (tumor size) compared with non-immunized group” value (C1498 cells) was “no differences seen from the non-immunized group” and the “binding affinities (Kd values) for K^b or D^b” value [1] was “highest binding affinity”.
